Data: patent publication US20260176249A1, “PROTEIN KINASE INHIBITOR, PREPARATION METHOD THEREFOR, AND APPLICATION THEREOF” (SHANDONG LUYE PHARMACEUTICAL CO., LTD., priority 2021, published 2026)

Experiments:
[1] = test system: HCT116 cells; assay: Inhibitory activity on HCT116 cell proliferation (ATPlite); assay type: cell-based; settings: Homo sapiens, HCT-116, 72 h
Protocol: Cell culture medium: RPMI1640+10% FBS (GBICO)
Cell culture plate: 96-well plate (Shanghai Jingan Biotechnology Co., Ltd.)
Detection kit: ATPlite 1step Luminescence (PerkinElmer)
Detection instrument: BioTek multifunctional microplate reader
2. Test method: HCT116 cells in the logarithmic growth phase were seeded into a white-wall clear-bottom 96-well plate at a density of 720 cells per well, and cultured overnight in a 37° C., 5% CO2 incubator. […] After adding the drug, culturing was continued for 72 h in a 37° C., 5% CO2 incubator.
GraphPad Prism 7.0 was used to process the data, the cell inhibition rate curve was obtained and IC50 was calculated.

[2] = Permeability and efflux transporter substrate evaluation in Caco-2 cells; assay type: in vitro ADME; parameters: dose or concentration left out as unconfirmed; settings: human, Caco-2, pH 7.4
Protocol: The cells were cultured in a carbon dioxide incubator for 21-28 days before being used for transport experiments. During this period, the culture medium was changed every four to five days.
This project uses Hank's balanced salt buffer (pH 7.40±0.05) containing 10 mM HEPES as the transport buffer. The culture medium was removed from the culture plate and the cells were washed twice with preheated transport buffer (approximately 75 μL and 40 mL of transport buffer for each apical well and basolateral receiver plate respectively). The donor solution and receiver solution were added to the corresponding cell plate wells (75 and 250 μL for each apical and basolateral well respectively), and the bidirectional transport experiment was started (apical to basolateral (A-B) and basolateral to apical (B-A)). The test concentration of the test substance was […], and two replicate wells were made for each dosing concentration. […]
All samples were vortexed, and then centrifuged at 3220×g for 20 min at 20° C. A proper volume of supernatant was transferred to a sample assay plate, and the sample was stored at 2-8° C. if it was not analyzed immediately after the plate was sealed, and LC MS/MS method was used for analysis. […]
[formula] • RFUApical and RFUBasolateral are the relative fluorescence intensity of lucifer yellow at the apical and basolateral sides respectively. […]

[3] = test system: HCT116 cells; assay: In vivo pharmacodynamic study of compound 18 in HCT116 tumor-bearing mice; parameters: species or system Balb/C Nude mice; settings: 7 days
Protocol: a. Establishment of tumor-bearing mouse model: HCT116 cells in the logarithmic growth phase were taken and cultured, the cells were collected and counted, and then subcutaneously inoculated into Balb/C Nude mice at 1×10^6/mouse. The tumor volume and body weight of the mice were measured regularly. 7 days after inoculation, mice with tumor volume of 150 mm3 were randomly divided into groups and treated with corresponding drugs.
3. Data processing: All data were organized in EXCEL, and One-way ANOVA analysis and drawing were performed using GraphPad Prism 8.0 software. Statistical significance was achieved when p<0.05.
1. Experiment materials: Same as Test example 5.
a. Establishment of tumor-bearing mouse model: Same as Test example 5.
b. […] The administration was performed once a day by gavage for 7 consecutive days, and the tumor volume and body weight of the mice were measured regularly.
3. Data processing: Same as Test example 5.

[4] = read-out: half inhibitory concentration

## CN1CCN(c2ccc(OC(F)(F)F)c(Nc3ncc4ccc5c(C(N)=O)nn(CCO)c5c4n3)c2)CC1 [Compound 1]
[1]
  IC50: 0.051 µM
[1]; [4]
  IC50: 0.051 µM

## CN1CCN(c2ccc(OC(F)(F)F)c(Nc3ncc4ccc5c(C(N)=O)nn(CCF)c5c4n3)c2)CC1 [Compound 18]
[1]
  IC50: 0.005 µM
[1]; [4]
  IC50: 0.005 µM
[2]
  efflux ratio at 120 min: 1.65
[3]
  required dose relative to control drug onvansertib to achieve the same efficacy: approximately ⅙

Like-named read-outs stand apart in the source and are kept apart here.
